Measurements from PMC5940271.

Molecular target: HLA-A*02:01 MHC class I monomer (heavy chain and β2-microglobulin)
Experiment: mass spectrometry of peptides eluted from MHC I after exchange

[…] (EBV BMLF-1-A2) (peptide)
efficiency of exchange (peptide eluted from MHC I, MS): 70.7%
